Results on 24 compounds are retold here after patent publication US8962608B2, “Cycloalkylnitrile pyrazole carboxamides as janus kinase inhibitors” (Merck Sharp & Dohme Corp., priority 2011, dated 2015).

Sequences of proteins named here, by UniProt entry; tags and fusion partners are left off. Residues count along the entry.
UniProt O60674, 849-1124: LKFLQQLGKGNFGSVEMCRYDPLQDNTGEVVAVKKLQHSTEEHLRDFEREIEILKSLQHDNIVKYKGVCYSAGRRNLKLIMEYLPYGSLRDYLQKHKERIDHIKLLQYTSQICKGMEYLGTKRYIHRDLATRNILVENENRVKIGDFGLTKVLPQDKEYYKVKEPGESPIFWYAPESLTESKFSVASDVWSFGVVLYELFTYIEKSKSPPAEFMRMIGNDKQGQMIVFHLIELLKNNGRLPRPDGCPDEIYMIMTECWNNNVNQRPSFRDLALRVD

Each structure is given as a SMILES string.

In general, IC50 refers to the midpoint of a concentration-inhibition curve.
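Also: biochemical JAK kinase assay with HTRF detection.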

This experiment addresses JAK2 (recombinant purified GST-tagged catalytic domain) (Homo sapiens (Human), UniProt O60674). Put plainly: biochemical.
As for `N#C[C@H]1C[C@@H](N2CC(O)(C(F)(F)F)C2)CC[C@@H]1n1cc(C(N)=O)c(Nc2ccc(C(F)(F)F)cc2)n1` (single isomer, unassigned) [Example 28-200, 1-{(1S,2S,4S or 1R,2R,4R)-2-cyano-4-[3-hydroxy-3-(trifluoromethyl)azetidin-1-yl]cyclohexyl}-3-{[4-(trifluoromethyl)phenyl]amino}-nvrazole-4-carboxamide], the IC50 stood at 23 nM.

Regarding `N#C[C@H]1C[C@H](N2CC(O)(C(F)(F)F)C2)CC[C@@H]1n1cc(C(N)=O)c(Nc2ccc(C(F)(F)F)cc2)n1` (single isomer, unassigned) [Example 28-201, 1-{(1S,2S,4R or 1R,2R,4S)-2-cyano-4-[3-hydroxy-3-(trifluoromethyl)azetidin-1-yl]cyclohexyl}-3-{[4-(trifluoromethyl)phenyl]amino}-1H-pyrazole-4-carboxamide], the IC50 is 62 nM.

Regarding `N#C[C@H]1C[C@@H](N2CC(O)(C(F)(F)F)C2)CCC1n1cc(C(N)=O)c(Nc2ccc(Cl)cc2)n1` (single isomer, unassigned) [Example 28-213, 3-[(4-chlorophenyl)amino]-1-{(1S,2S,4S or 1R,2R,4R)-2-cyano-4-[3-hydroxy-3-(trifluoromethyl)azetidin-1-yl]cyclohexyl}-1H-pyrazole-4-carboxamide], the IC50 turned out to be 12 nM.

Regarding `N#C[C@H]1C[C@@H](NC2CCOCC2)CCC1n1cc(C(N)=O)c(Nc2ccc(Cl)cc2)n1` (single isomer, unassigned) [Example 28-218, 3-[(4-chlorophenyl)amino]-1-[(1S,2S,4S or 1R,2R,4R)-2-cyano-4-(tetrahydro-2H-pyran-4-ylamino)cyclohexyl]-1H-pyrazole-4-carboxamide], the IC50 turned out to be 102 nM.

In the case of `N#C[C@H]1C[C@@H](NCC(F)(F)F)CC[C@@H]1n1cc(C(N)=O)c(Nc2ccc(Cl)cc2)n1` (single isomer, unassigned) [Example 28-224, 3-[(4-chlorophenyl)amino]-1-{(1S,2S,4S or 1R,2R,4R)-2-cyano-4-[(2,2,2-trifluoroethyl)amino]cyclo-hexyl}-1H-pyrazole-4-carboxamide], the IC50 was 34 nM.

On to `N#C[C@H]1C[C@H](NCC(F)(F)F)CC[C@@H]1n1cc(C(N)=O)c(Nc2ccc(Cl)cc2)n1` (single isomer, unassigned) [Example 28-225, 3-[(4-chlorophenyl)amino]-1-{(1S,2S,4R or 1R,2R,4S)-2-cyano-4-[(2,2,2-trifluoroethyl)amino]cyclohexyl}-1H-pyrazole-4-carboxamide], for which the IC50 amounted to 51 nM.

As for `COCC(C)(C)N[C@H]1CCC(n2cc(C(N)=O)c(Nc3ccccc3)n2)[C@@H](C#N)C1` (single isomer, unassigned) [Example 28-231, 1-{(1S,2S,4S or 1R,2R,4R)-2-cyano-4-[(2-methoxy-1,1-dimethylethyl)amino]cyclo-hexyl}-3-(phenylamino)-1H-pyrazole-4-carboxamide], the IC50 came out at 170 nM.

For `COCC(C)(C)N(C)[C@H]1CCC(n2cc(C(N)=O)c(Nc3ccc(Cl)cc3)n2)[C@@H](C#N)C1` (single isomer, unassigned) [Example 28-234, 3-[(4-chlorophenyl)amino]-1-{(1S,2S,4S or 1R,2R,4R)-2-cyano-4-[(2-methoxy-1,1-dimethylethyl)(methyl)ami-no]cyclohexyl}-1H-pyrazole-4-carboxamide], the IC50 stood at 63 nM.

As for `COCC(C)N[C@H]1CCC(n2cc(C(N)=O)c(Nc3ccc(Cl)cc3)n2)[C@@H](C#N)C1` (single isomer, unassigned) [Example 28-237, 3-[(4-chlorophenyl)amino]-1-[(1S,2S,4S or 1R,2R,4R)-2-cyano-4-{[(1S)-2-methoxy-1-methylethyl]amino}cyclohexyl]-1H-pyrazole-4-carboxamide], the IC50 was determined as 33 nM.

On to `COCC(C)N[C@H]1CCC(n2cc(C(N)=O)c(Nc3ccc(Cl)cc3)n2)[C@@H](C#N)C1` (single isomer, unassigned) [Example 28-238, 3-[(4-chlorophenyl)amino]-1-[(1S,2S,4S or 1R,2R,4R)-2-cyano-4-{[(1S)-2-methoxy-1-methylethyl]amino}cyclohexyl]-1H-pyrazole-4-carboxamide], for which the IC50 stood at 38 nM.

Take `CC(C)(O)C1CC(CN[C@H]2CC[C@@H](n3cc(C(N)=O)c(Nc4ccc(C(F)(F)F)cc4)n3)[C@H](C#N)C2)C1` (single isomer, unassigned) [Example 30-4, 1-[(1R,2R,4S or 1S,2S,4R)-2-cyano-4-({[3-(1-hydroxy-1-methylethyl)cyclo-butyl]methyl}amino)cyclo-hexyl]-3-{[4-(trifluoro-methyl)phenyl]amino}-1H-pyrazole-4-carboxamide]: the IC50 came out at 265 nM.

As to `CC(C)CN(CC1CC1)[C@H]1CC[C@@H](n2cc(C(N)=O)c(Nc3ccc(C(F)(F)F)cc3)n2)[C@H](C#N)C1` (single isomer, unassigned) [Example 30-9, l-{(1R,2R,4S or 1S,2S,4R)-2-cyano-4-[(cyclopropylmethyl)(2-methylpropyl)amino]cyclo-hexyl}-3-{[4-(trifluoromethyl)phenyl]amino}-1H-pyrazole-4-carboxamide], the IC50 was 910 nM.

`CC(C)(c1ccc(Nc2nn([C@H]3CC[C@@](C)(O)C[C@@H]3C#N)cc2C(N)=O)cc1)C(O)C(F)(F)F` (single isomer, unassigned) [Example 32-2, 1-[(1S,2S,4R or 1R,2R,4S)-2-cyano-4-hydroxy-4-methylcyclohexyl]-3-{[4-(3,3,3-trifluoro-(2R or 2S)-hydroxy-1,1-dimethylpropyl)phenyl]amino}-1H-pyrazole-4-carboxamide]: the IC50 was determined as 4 nM.

For `CC(C)(c1ccc(Nc2nn([C@H]3CC[C@](C)(O)C[C@@H]3C#N)cc2C(N)=O)cc1)C(O)C(F)(F)F` (single isomer, unassigned) [Example 32-3, 1-[(1S,2S,4S or 1R,2R,4R)-2-cyano-4-hydroxy-4-methylcyclohexyl]-3-{[4-(3,3,3-trifluoro-(2R or 2S)-hydroxy-1,1-dimethylpropyl)phenyl]amino}-1H-pyrazole-4-carboxamide], the IC50 worked out at 3 nM.

As to `CC(C)(c1ccc(Nc2nn([C@H]3CC[C@](C)(O)C[C@@H]3C#N)cc2C(N)=O)cc1)C(O)C(F)(F)F` (single isomer, unassigned) [Example 32-4, 1-[(1S,2S,4S or 1R,2R,4R)-2-cyano-4-hydroxy-4-methylcyclohexyl]-3-{[4-(3,3,3-trifluoro-(2R or 2S)-hydroxy-1,1-dimethylpropyl)phenyl]amino}-1H-pyrazole-4-carboxamide], the IC50 worked out at 2 nM.

With `C=C[C@]1(O)CC[C@H](n2cc(C(N)=O)c(Nc3ccc(Cl)cc3)n2)[C@@H](C#N)C1` (single isomer, unassigned) [Example 32-5, 3-[(4-chlorophenyl)amino]-1-[(1S,2S,4S or 1R,2R,4R)-2-cyano-4-ethenyl-4-hydroxycyclohexyl]-1H-pyrazole-4-carboxamide], the IC50 is 25 nM.

Turning to `CC(C)(c1ccc(Nc2nn([C@H]3CC[C@@](C)(O)C[C@@H]3C#N)cc2C(N)=O)cc1)C(O)C(F)(F)F` (single isomer, unassigned) [Example 32-6, 1-[(1S,2S,4R or 1R,2R,4R)-2-cyano-4-hydroxy-4-methylcyclohexyl]-3-{[4-(3,3,3-trifluoro-(2R or 2S)-hydroxy-1,1-dimethylpropyl)phenyl]amino}-1H-pyrazole-4-carboxamide], the IC50 came out at 5 nM.

Take `C[C@]1(O)CC[C@H](n2cc(C(N)=O)c(Nc3ccc([C@](C)(O)C(F)(F)F)cc3)n2)[C@@H](C#N)C1` (single isomer, unassigned) [Example 32-8, 1-[(1S,2S,4S or 1R,2R,4R)-2-cyano-4-hydroxy-4-methylcyclohexyl]-3-({4-[(1S or 1R)-2,2,2-trifluoro-1-hydroxy-1-methylethyl]phenyl}amino)-1H-pyrazole-4-carboxamide]: the IC50 worked out at 4 nM.

For `C[C@@]1(O)CC[C@H](n2cc(C(N)=O)c(Nc3ccc([C@](C)(O)C(F)(F)F)cc3)n2)[C@@H](C#N)C1` (single isomer, unassigned) [Example 32-9, 1-[(1S,2S,4R or 1R,2R,4S)-2-cyano-4-hydroxy-4-methylcyclohexyl]-3-({4-[(1S or 1R)-2,2,2-trifluoro-1-hydroxy-1-methylethyl]phenyl}amino)-1H-pyrazole-4-carboxamide], the IC50 amounted to 4 nM.

With `C[C@]1(O)CC[C@H](n2cc(C(N)=O)c(Nc3ccc(Cl)cc3)n2)[C@@H](C#N)C1` (single isomer, unassigned) [Example 32-10, 3-[(4-chlorophenyl)amino]-1-[(1S,2S,4S or 1R,2R,4R)-2-cyano-4-hydroxy-4-methylcyclohexyl]-1H-pyrazole-4-carboxamide], the IC50 is 9 nM.

For `C[C@@]1(O)CC[C@H](n2cc(C(N)=O)c(Nc3ccc([C@@](C)(O)C(F)(F)F)cc3)n2)[C@@H](C#N)C1` (single isomer, unassigned) [Example 32-11, 1-[(1S,2S,4R or 1R,2R,4S)-2-cyano-4-hydroxy-4-methylcyclohexyl]-3-({4-[(1R or 1S)-2,2,2-trifluoro-1-hydroxy-1-methylethyl]phenyl}amino)-1H-pyrazole-4-carboxamide], the IC50 stood at 4 nM.

Regarding `N#C[C@H]1C[C@](O)(C2CC2)CC[C@@H]1n1cc(C(N)=O)c(Nc2ccc(Cl)cc2)n1` (single isomer, unassigned) [Example 32-12, 3-[(4-chlorophenyl)aminol-1-[(1S,2S,4S or 1R,2R,4R)-2-cyano-4-cyclopropyl-4-hydroxycyclohexyl]-1H-pyrazole-4-carboxamide], the IC50 turned out to be 10 nM.

Turning to `C[C@@]1(O)CC[C@H](n2cc(C(N)=O)c(Nc3ccc(Cl)cc3)n2)[C@@H](C#N)C1` (single isomer, unassigned) [Example 32-13, 3-[(4-chlorophenyl)amino]-1-[(1S,2S,4R or 1R,2R,4S)-2-cyano-4-hydroxy-4-methylcyclohexyl]-1H-pyrazole-4-carboxamide], the IC50 is 17 nM.

Turning to `N#C[C@H]1C[C@@](O)(C2CC2)CC[C@@H]1n1cc(C(N)=O)c(Nc2ccc(Cl)cc2)n1` (single isomer, unassigned) [Example 32-14, 3-[(4-chlorophenyl)amino]-1-[(1S,2S,4R or 1R,2R,4S)-2-cyano-4-cyclopropyl-4-hydroxycyclohexyl]-1H-pyrazole-4-carboxamide], the IC50 came to 73 nM.
